# Yeast mating assay 1: variants of the scFv Ab-14

Source: Engelhart et al. 2022 (doi:10.1038/s41597-022-01779-4), MIT Lincoln Laboratory and A-Alpha Bio; data file from the FLAb repository.

Target peptide (SARS-CoV-2 spike, HR2 region): PDVDLGDISGINAS

Parent scFv Ab-14: VH joined to VL by the linker GGGGSGGGGSGGGGS. Changes lie in the heavy chain CDRs alone.
VH: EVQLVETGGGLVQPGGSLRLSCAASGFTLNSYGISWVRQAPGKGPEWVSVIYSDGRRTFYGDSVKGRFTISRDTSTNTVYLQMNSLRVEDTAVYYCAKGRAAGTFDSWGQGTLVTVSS
VL: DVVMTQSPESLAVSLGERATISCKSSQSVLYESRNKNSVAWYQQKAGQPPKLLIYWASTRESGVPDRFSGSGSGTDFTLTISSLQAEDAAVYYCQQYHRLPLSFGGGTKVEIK

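The starting antibody came from a phage panning campaign against this peptide. AAYL49 was designed without a model: most single CDR substitutions and a random sample of double and triple ones. Affinity was read by AlphaSeq, a pooled yeast mating assay with surface-displayed partners. Pairs that bind mate more often; barcode pairs of the diploids are counted by sequencing. The ratio of observed to expected reads was calibrated, replicate by replicate, on BCL2-family standards whose Kd was known from biolayer interferometry. There are three technical replicates.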

The parent's heavy chain CDRs are GFTLNSYGIS, VIYSDGRRTFYGDSVK, GRAAGTFDS; each variant's own CDRs replace them letter for letter.
Numbers give log10(Kd / nM), so 0 is 1 nM and 3 is 1 µM. Smaller is tighter.
The mean shown is taken over the replicates in which the pair was detected.
An entry "n.d." has no value in the source: the pair was not observed among the diploids in that replicate. This suggests poor binding but is not conclusive.
Parent in this assay: reference entry 0.65, copy in this library 4.11 (one replicate of three).

CDR-H1,CDR-H2,CDR-H3,"log10 Kd, replicates","log10 Kd (nM), mean",signal with controls
GFTLPSYGIS,VIYSDGRRTFYGDSVK,GRAAGTFKS,1.60 / 1.72 / 2.22,1.84,0/9
GFTLNSYGDS,VIYSDGRRTFYGDSVK,GFAAGTFSS,n.d. / n.d. / n.d.,n.d.,0/9
GFTCNSYGFS,VIYSDIRRTFYGDSVK,GRAAGTFDS,n.d. / n.d. / n.d.,n.d.,1/9 (4.32)
GFTLNSYGIS,VIYSGGRWTFYGDSVK,GFAAGTFDS,n.d. / n.d. / n.d.,n.d.,0/9
GRTLWSYGIS,VIYSDGRRTFYDDSVK,GRAAGTFDS,3.79 / 2.69 / 3.01,3.16,2/9 (3.14)
GFTLNSYGIS,VGYNDGRRTIYGDSVK,GRAAGTFDS,n.d. / n.d. / 4.10,4.10,1/9 (4.40)
GFTLNSYGIS,VIYSDGRRTFYGDSVK,LRAALTFIS,n.d. / n.d. / n.d.,n.d.,0/9
GATLGSYGIS,VIYSDGPRTFYGDSVK,GRAAGTFDS,n.d. / 5.34 / n.d.,5.34,2/9 (4.33)
GFILNSYGIS,VIYSDGRRTFYGDLVK,GRAAGFFDS,2.67 / 1.87 / 2.93,2.49,0/9
GFTLNSYTIS,VIYSDGRRTFYGDSVK,GRAAGTNHS,2.89 / n.d. / n.d.,2.89,3/9 (3.89)
GFTLASYGIS,IIYSDGRRTFYGDSVK,GRAAGTFDS,2.35 / 2.07 / 2.28,2.23,5/9 (5.01)
GFTLNSSGIS,VIYPDGRRTFYGDSVK,GRAAGTADS,n.d. / n.d. / n.d.,n.d.,3/9 (4.65)
GFTLYNYGIS,VIYSDGRRTFYGDSVK,GRAAGTFVS,1.16 / 1.17 / 1.82,1.38,0/9
GFTLNSYGIS,VIYSDGRRTFYGDSVK,GWALGTFDS,n.d. / n.d. / n.d.,n.d.,0/9
HFTLNSYGIS,VIYSDGRRTFKGDSVK,GRAAGTFDS,n.d. / 3.49 / 5.22,4.35,6/9 (4.09)
GFTLNSYGIS,VKYSDGRRTQYGDSVL,GRAAGTFDS,n.d. / n.d. / 4.62,4.62,3/9 (4.14)
GFTLNPYGIS,VIYSDGRRTFCGDSTK,GRAAGTFDS,n.d. / n.d. / n.d.,n.d.,0/9
GFTGNSYGIE,VIYSDGRRTFYGDSVK,GRAAYTFDS,n.d. / n.d. / n.d.,n.d.,3/9 (4.26)
GFTLNSYGIF,VIYSNGRRTFYGDSGK,GRAAGTFDS,n.d. / n.d. / n.d.,n.d.,0/9
GFTLNSYGIS,VIYSFGKRTFYGDSVK,GRAAGSFDS,n.d. / 4.16 / n.d.,4.16,5/9 (4.50)
EFTLNNYGIS,VIYSDGRRTFYGDSVK,GGAAGTFDS,1.07 / 1.26 / 1.16,1.16,8/9 (4.84)
GFTLNSYGIS,VIYSPGRRTFYGDSVK,GTAAVTFDS,n.d. / n.d. / n.d.,n.d.,1/9 (2.89)
GFTLNSYGRS,VIYSTKRRTFYGDSVK,GRAAGTFDS,n.d. / n.d. / n.d.,n.d.,0/9
GFHLNSYGID,VIYSDGRRTFYGDSVK,GRAAGWFDS,n.d. / n.d. / n.d.,n.d.,0/9
GFTLNSYGIS,VIYSDGRRTFYGDSVK,GRAAGTMDS,n.d. / n.d. / n.d.,n.d.,2/9 (3.46)
GFTLNSYGIS,VRYSDGRRTFYGDVVG,GRAAGTFDS,n.d. / n.d. / n.d.,n.d.,0/9
GFTLNSYGIS,VIYSDGFRTFYGDSVK,GRAAGTFDS,1.35 / 0.81 / 1.15,1.10,0/9
GFTLNSYHIS,VIYSDGRREFYGDSVK,GGAAGTFDS,n.d. / n.d. / n.d.,n.d.,5/9 (3.85)
GFTLNSYDIS,AIYSDGRRTFYGDSVK,GRAAGHFDS,4.83 / 2.55 / n.d.,3.69,1/9 (2.81)
GFTLNSPGIS,VIYSDGRRTFYPDSVK,GRAAGTPDS,n.d. / n.d. / n.d.,n.d.,0/9
GFTLNSYGIS,VVYWDGMRTFYGDSVK,GRAAGTFDS,n.d. / n.d. / n.d.,n.d.,0/9
GFSLNSYGIS,VQYSDGRRTFYGVSVK,GRAAGTFDS,4.98 / n.d. / n.d.,4.98,1/9 (5.95)

Again, the first 2 entries without any signal:

{"CDR-H1": "GFTLNSYGDS", "CDR-H2": "VIYSDGRRTFYGDSVK", "CDR-H3": "GFAAGTFSS", "log10 Kd, replicates": "n.d. / n.d. / n.d.", "log10 Kd (nM), mean": "n.d.", "signal with controls": "0/9"}
{"CDR-H1": "GFTCNSYGFS", "CDR-H2": "VIYSDIRRTFYGDSVK", "CDR-H3": "GRAAGTFDS", "log10 Kd, replicates": "n.d. / n.d. / n.d.", "log10 Kd (nM), mean": "n.d.", "signal with controls": "1/9 (4.32)"}

Background: pairings of library AAYL49 with three empty control strains gave a value in 15% of cases (median 4.06, 5th percentile 2.83). Values in that range, when seen in few replicates, are hard to tell from nonspecific mating. For each scFv, signals with the empty controls are counted beside the result, with their mean in brackets.